The chains behind the UniProt entries cited, without tags or fusion partners. Where a name states a change or a piece, a line headed by the entry shows the natural chain unless it says otherwise.
UniProt P18421: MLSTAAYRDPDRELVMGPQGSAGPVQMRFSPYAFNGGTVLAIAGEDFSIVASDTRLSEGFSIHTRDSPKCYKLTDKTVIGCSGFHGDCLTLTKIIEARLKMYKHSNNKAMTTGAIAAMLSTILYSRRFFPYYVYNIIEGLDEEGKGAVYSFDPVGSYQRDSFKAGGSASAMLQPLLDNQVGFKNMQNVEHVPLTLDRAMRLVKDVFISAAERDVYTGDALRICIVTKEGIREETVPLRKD
UniProt P28075: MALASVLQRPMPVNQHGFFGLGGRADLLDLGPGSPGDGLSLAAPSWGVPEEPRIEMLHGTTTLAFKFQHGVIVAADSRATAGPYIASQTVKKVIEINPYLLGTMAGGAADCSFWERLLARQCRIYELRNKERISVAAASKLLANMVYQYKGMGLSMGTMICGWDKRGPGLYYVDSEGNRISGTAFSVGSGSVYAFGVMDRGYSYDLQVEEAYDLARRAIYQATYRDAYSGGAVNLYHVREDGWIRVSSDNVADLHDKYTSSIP

In patent publication US9421237B2, “Tripeptide boronic acid or boronic ester, preparative method and use thereof” (PEKING UNIVERSITY, priority 2009, dated 2016):

Target: T1, 20S proteasome extracted from rat liver, chymotryptic-like (CT-L) activity (Rattus norvegicus, UniProt P18421+P28075)
T1 construct: 20S proteasome extracted from rat liver; from tissue; host or cells: rat liver
Assay: Proteasome inhibition, chymotryptic-like (CT-L) activity, fluorescent peptide Suc-leu-leu-Val-Tyr-AMC
Assay type: biochemical
Settings: rat liver 20S proteasome, 37° C., 1 h
Procedure: The activities of the proteasome were assayed using fluorescent peptides: Suc-leu-leu-Val-Tyr-AMC (Suc represents succinyl, and AMC represents 7-amino-4-methylcoumarin, purchased from SIGMA) for determining chymotryptic-like (CT-L) activity; Z-Ala-Arg-Arg-AMC (Z represents benzyloxycarbonyl, purchased from Calbiochem) for determining trypsin-like (TL) activity; and Z-leu-leu-Glu-βNA (βNA represents β-naphtylamide, purchased from SIGMA) for determining peptidyl-glutamyl-peptide-hydrolyzing (PGPH) enzyme activity.
Method for the aforesaid activity assays is as follows: 1 μg of 20S proteasome extracted from rat liver was incubated with a 100 μL solution containing various concentrations of compounds, 50 μM fluorescent peptides and 20 mM Tris-HCl at 37° C. for 1 h, respectively. The fluorescence released from AMC and RNA reagents was measured by a spectrofluorimeter Fluostar OPTIMA and BMG Germany at excitation/emission wavelengths of 380/440 nm and 335/410 nm, respectively. 0.1% DMSO was used as a solvent control. Compared with the fluorescence of solvent control, an inhibition rate was calculated. Said assays used anticancer drug bortezomib (leukemia drug), namely PS341 as compound for positive control.

CC(C)C[C@H](NC(=O)[C@H](Cc1ccccc1)NC(=O)c1cnccn1)B(O)O [PS341, Bortezomib, reference compound]
IC50: 0.161 ± 0.024 nM
